# Experimental data reported in PubChem BioAssay (NCI).
# The entries are a selection whose mix differs from that of the whole data set.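 Plates (96-well) were seeded with cells, treated with compound at one concentration, and incubated for 48 hours before percent growth was determined.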 Calls of active or inactive are those of the source. How the source made its calls: active means growth percent below 10; inactive means the rest.
# Experiments:
# Assay in all cases: NCI-60 one-dose screen, 48 h (100 = growth as untreated, 0 = no growth, -100 = all killed)
# Conditions in all cases: 10 µM
# SK-MEL-2 melanoma = test system: SK-MEL-2 melanoma
# EKVX NSCLC = test system: EKVX NSCLC
# SN12C renal = test system: SN12C renal
# UO-31 renal = test system: UO-31 renal
# TK-10 renal = test system: TK-10 renal
# ACHN renal = test system: ACHN renal
# CAKI-1 renal = test system: CAKI-1 renal
# A498 renal = test system: A498 renal
# HL-60(TB) leukemia = test system: HL-60(TB) leukemia
# CCRF-CEM leukemia = test system: CCRF-CEM leukemia
# MOLT-4 leukemia = test system: MOLT-4 leukemia
# SR leukemia = test system: SR leukemia
# RPMI-8226 leukemia = test system: RPMI-8226 leukemia
# OVCAR-8 ovarian = test system: OVCAR-8 ovarian
# OVCAR-5 ovarian = test system: OVCAR-5 ovarian
# OVCAR-4 ovarian = test system: OVCAR-4 ovarian
# SK-OV-3 ovarian = test system: SK-OV-3 ovarian
# IGROV1 ovarian = test system: IGROV1 ovarian
# OVCAR-3 ovarian = test system: OVCAR-3 ovarian
# HS 578T breast = test system: HS 578T breast
Compound,growth (SK-MEL-2 melanoma),growth (EKVX NSCLC),growth (SN12C renal),growth (UO-31 renal),growth (TK-10 renal),growth (ACHN renal),growth (CAKI-1 renal),growth (A498 renal),growth (HL-60(TB) leukemia),growth (CCRF-CEM leukemia),growth (MOLT-4 leukemia),growth (SR leukemia),growth (RPMI-8226 leukemia),growth (OVCAR-8 ovarian),growth (OVCAR-5 ovarian),growth (OVCAR-4 ovarian),growth (SK-OV-3 ovarian),growth (IGROV1 ovarian),growth (OVCAR-3 ovarian),growth (HS 578T breast)
Cc1ccc(NC2(C(N)=O)CCNCC2)cc1,inactive: 106%,inactive: 113%,inactive: 83.9%,inactive: 82.6%,inactive: 106%,inactive: 103%,inactive: 103%,inactive: 114%,inactive: 145%,inactive: 100%,inactive: 104%,inactive: 123%,inactive: 95.7%,inactive: 98.6%,inactive: 94.1%,inactive: 102%,inactive: 97.5%,inactive: 102%,inactive: 110%,inactive: 97.3%
ClCCN(CCCl)Cc1ccc2c(c1)OCO2,inactive: 113%,inactive: 99.1%,inactive: 66.2%,inactive: 85%,inactive: 110%,inactive: 49.6%,inactive: 38.1%,inactive: 76.4%,inactive: 73.2%,inactive: 63.9%,inactive: 65.3%,inactive: 29.8%,inactive: 89.8%,inactive: 82.8%,inactive: 98.7%,inactive: 110%,inactive: 91.1%,inactive: 79.7%,inactive: 105%,inactive: 95.1%
Cc1ccc(NC2(C(N)=O)CCN(Cc3ccccc3)CC2)cc1,inactive: 108%,inactive: 94.5%,inactive: 99.7%,inactive: 76.3%,inactive: 111%,inactive: 106%,inactive: 95%,–,inactive: 111%,inactive: 106%,inactive: 96.1%,–,inactive: 101%,inactive: 103%,inactive: 99.7%,inactive: 97%,inactive: 109%,inactive: 102%,inactive: 117%,inactive: 102%
Cn1c(=O)[nH]cc(N(CCCl)CCCl)c1=O,inactive: 92.4%,inactive: 105%,inactive: 76.6%,inactive: 90.3%,inactive: 92.7%,inactive: 51.9%,inactive: 56.1%,inactive: 105%,inactive: 47.8%,inactive: 45.4%,inactive: 57.4%,inactive: 30.2%,inactive: 87.1%,inactive: 86.7%,inactive: 106%,inactive: 104%,inactive: 122%,inactive: 85.9%,inactive: 105%,inactive: 96.2%
N#CC1(Nc2ccccc2)CCN(Cc2ccccc2)CC1,inactive: 90.2%,inactive: 87.4%,inactive: 92.5%,inactive: 78.6%,inactive: 256%,inactive: 99.4%,inactive: 68.2%,inactive: 105%,inactive: 159%,inactive: 104%,inactive: 147%,inactive: 128%,inactive: 106%,inactive: 109%,inactive: 111%,inactive: 101%,inactive: 50.1%,inactive: 91.4%,inactive: 103%,inactive: 100%
[O-][n+]1onc(-c2ncon2)c1-c1ncon1,inactive: 97.3%,inactive: 99.8%,inactive: 102%,inactive: 100%,inactive: 73.1%,active: -71.9%,inactive: 94.4%,inactive: 95.5%,inactive: 47.3%,inactive: 43%,inactive: 22.4%,active: -4.66%,inactive: 49.5%,inactive: 111%,inactive: 106%,inactive: 108%,inactive: 125%,inactive: 112%,active: -17.7%,inactive: 96.3%
ClCCN(CCCl)CCc1ccccc1,inactive: 102%,inactive: 122%,inactive: 86.8%,inactive: 86.1%,inactive: 96.7%,inactive: 93.2%,inactive: 100%,inactive: 106%,inactive: 88%,inactive: 81.3%,inactive: 73.3%,inactive: 84.7%,inactive: 91.3%,inactive: 91.1%,inactive: 97.3%,inactive: 113%,inactive: 104%,inactive: 104%,inactive: 110%,inactive: 116%
O=c1[nH]cc(CN(CCCl)CCCl)c(=O)[nH]1,inactive: 101%,inactive: 96.1%,inactive: 96.2%,inactive: 86.5%,inactive: 98.2%,inactive: 93.2%,inactive: 91.9%,–,inactive: 96.2%,inactive: 109%,inactive: 101%,inactive: 101%,inactive: 103%,inactive: 101%,inactive: 99.3%,inactive: 107%,–,inactive: 101%,inactive: 111%,inactive: 105%
